What was measured:
[1] = tested on: Ba/F3 cells expressing FLT3-ITD
[2] = tested on: Ba/F3 cells expressing FLT3-ITD-D835V

| IC50 [1] | IC50 [2] | SMILES |
| --- | --- | --- |
| < 10 nM | < 10 nM | COc1cc2ncc(-c3ccc(CC(=O)Nc4cc(C(C)(C)C(F)(F)F)on4)c(F)c3)nc2cc1OCCN1CC[C@H](O)C1 [Example 191, 2-[2-fluoro-4-[7-[2-[(3S)-3-hydroxypyrrolidin-1-yl]ethoxy]-6-methoxy-quinoxalin-2-yl]phenyl]-N-[5-(2,2,2-trifluoro-1,1-dimethyl-ethyl)isoxazol-3-yl]acetamide] |
| < 10 nM | < 10 nM | COc1cc2ncc(-c3ccc(CC(=O)Nc4cc(C5(C(F)(F)F)CC5)n[nH]4)c(F)c3)nc2cc1OC [Example 180, 2-[4-(6,7-dimethoxyquinoxalin-2-yl)-2-fluoro-phenyl]-N-[3-[1-(trifluoromethyl)cyclo-propyl]-1H-pyrazol-5-yl]acetamide] |
| < 10 nM | < 10 nM | COc1cc2ncc(-c3ccc(CC(=O)Nc4cc(C(C)(C)C(F)(F)F)on4)c(F)c3)nc2cc1OCCN(C)C(C)=O [Example 198, 2-[4-[7-[2-[acetyl(methyl)amino]ethoxy]-6-methoxy-quinoxalin-2-yl]-2-fluoro-phenyl]-N-[5-(2,2,2-trifluoro-1,1-dimethyl-ethyl)isoxazol-3-yl]acetamide] |
| < 10 nM | < 10 nM | COc1cc2cc(-c3ccc(CC(=O)Nc4cc(C5(C(F)(F)F)CC5)on4)c(F)c3)cnc2cc1OCCN1CCOCC1 [Example 232, 2-[2-fluoro-4-[6-methoxy-7-(2-morpholinoethoxy)-3-quinolyl]phenyl]-N-[5-[1-(trifluoromethyl)cyclo-propyl]isoxazol-3-yl]acetamide] |
| < 10 nM | < 10 nM | COCCOc1cc2cc(-c3ccc(CC(=O)Nc4cc(C(C)(C)C(F)(F)F)on4)c(F)c3)cnc2cc1OC [Example 177, 2-[2-fluoro-4-[7-methoxy-6-(2-methoxyethoxy)-3-quinolyl]phenyl]-N-[5-(2,2,2-trifluoro-1,1-dimethyl-ethyl)isoxazol-3-yl]acetamide] |
| < 10 nM | < 10 nM | COc1cc2nc(-c3ccc(CC(=O)Nc4cc(C5(C(F)(F)F)CC5)on4)c(F)c3)cnc2cc1OCCN1CCC(F)(F)C1 [Example 82, 2-(4-(6-(2-(3,3-difluoropyrrolidin-1-yl)ethoxy)-7-methoxyquinoxalin-2-yl)-2-fluorophenyl)-N-(5-(1-(trifluoromethyl)cyclopropyl)isoxazol-3-yl)acetamide] |
| < 10 nM | < 10 nM | COc1cc2ncc(-c3ccc(CC(=O)Nc4cc(C(C)(C)C(F)(F)F)on4)c(F)c3)cc2cc1OCCN1CCOCC1 [Example 189, 2-[2-fluoro-4-[7-methoxy-6-(2-morpholinoethoxy)-3-quinolyl]phenyl]-N-[5-(2,2,2-trifluoro-1,1-dimethyl-ethyl)isoxazol-3-yl]acetamide] |
| < 10 nM | < 10 nM | COc1cc2nc(-c3ccc(CC(=O)Nc4cc(C(C)(C)C(F)(F)F)on4)cc3)cnc2cc1OCCN1CCOCC1 [Example 93, 2-(4-(7-methoxy-6-(2-morpholinoethoxy)quinoxalin-2-yl)phenyl)-N-(5-(1,1,1-trifluoro-2-methylpropan-2-yl)isoxazol-3-yl)acetamide] |
| < 10 nM | < 10 nM | COc1cc2nc(-c3ccc(CC(=O)Nc4cc(C5(C(F)(F)F)CC5)on4)c(F)c3)cnc2cc1OC[C@@H](C)O [Example 208, 2-[2-fluoro-4-[6-[(2R)-2-hydroxypropoxy]-7-methoxy-quinoxalin-2-yl]phenyl]-N-[5-[1-(trifluoro-methyl)cyclopropyl]isoxazol-3-yl]acetamide] |
| < 10 nM | < 10 nM | COc1cc2nc(-c3ccc(CC(=O)Nc4cc(C5(C(F)(F)F)CC5)nn4C)c(F)c3)cnc2cc1OCCN1CCOCC1 [Example 228, 2-[2-fluoro-4-[7-methoxy-6-(2-morpholino-ethoxy)quinoxalin-2-yl]phenyl]-N-[2-methyl-5-[1-(trifluoromethyl)cyclo-propyl]pyrazol-3-yl]acetamide] |
| < 10 nM | < 10 nM | COc1cc2nc(-c3ccc(CC(=O)Nc4cc(C5(C(F)(F)F)CC5)on4)c(F)c3)cnc2cc1OCCN1CCNCC1 [Example 241, 2-[2-fluoro-4-[7-methoxy-6-(2-piperazin-1-ylethoxy)quinoxalin-2-yl]phenyl]-N-[5-[1-(trifluoromethyl)cyclo-propyl]isoxazol-3-yl]acetamide] |
| < 10 nM | < 10 nM | COc1cc2nc(-c3ccc(CC(=O)Nc4cc(C5(C(F)(F)F)CC5)on4)c(F)c3)cnc2cc1OCCCO [Example 195, 2-[2-fluoro-4-[6-(3-hydroxypropoxy)-7-methoxy-quinoxalin-2-yl]phenyl]-N-[5-[1-(trifluoromethyl)cyclo-propyl]isoxazol-3-yl]acetamide] |
| < 10 nM | < 10 nM | COc1cc2nc(-c3ccc(CC(=O)Nc4cc(C5(C(F)(F)F)CC5)on4)c(F)c3)cnc2cc1OCCCN1CCOCC1 [Example 212, 2-[2-fluoro-4-[7-methoxy-6-(3-morpholino-propoxy)quinoxalin-2-yl]phenyl]-N-[5-[1-(trifluoro-methyl)cyclopropyl]isoxazol-3-yl]acetamide] |
| < 10 nM | < 10 nM | COc1cc2ncc(-c3ccc(CC(=O)Nc4cc(C5(C(F)(F)F)CC5)on4)c(F)c3)cc2cc1OCCO [Example 179, 2-[2-fluoro-4-[6-(2-hydroxyethoxy)-7-methoxy-3-quinolyl]phenyl]-N-[5-[1-(trifluoromethyl)cyclo-propyl]isoxazol-3-yl]acetamide] |
| < 10 nM | < 10 nM | CCN1CCN(CCOc2cc3ncc(-c4ccc(CC(=O)Nc5cc(C6(C(F)(F)F)CC6)on5)c(F)c4)nc3cc2OC)CC1 [Example 105, 2-[4-[6-[2-(4-ethylpiperazin-1-yl)ethoxy]-7-methoxy-quinoxalin-2-yl]-2-fluoro-phenyl]-N-[5-[1-(trifluoromethyl)cyclo-propyl]isoxazol-3-yl]acetamide] |
| < 10 nM | < 10 nM | COc1cc2ncc(-c3ccc(CC(=O)Nc4cc(C(C)(C)C(F)(F)F)on4)c(F)c3)nc2cc1OCCCN1CCOCC1 [Example 203, 2-[2-fluoro-4-[6-methoxy-7-(3-morpholino-propoxy)quinoxalin-2-yl]phenyl]-N-[5-(2,2,2-trifluoro-1,1-dimethyl-ethyl)isoxazol-3-yl]acetamide] |
| < 10 nM | < 10 nM | COc1cc2ncc(-c3cnc(CC(=O)Nc4cc(C(C)(C)C(F)(F)F)on4)c(F)c3)nc2cc1OC [Example 229, 2-[5-(6,7-dimethoxyquinoxalin-2-yl)-3-fluoro-2-pyridyl]-N-[5-(2,2,2-trifluoro-1,1-dimethyl-ethyl)isoxazol-3-yl]acetamide] |
| < 10 nM | < 10 nM | COc1cc2nc(-c3ccc(CC(=O)Nc4cc(C5(C(F)(F)F)CC5)on4)c(F)c3)cnc2cc1Br [Example 83, 2-(4-(6-bromo-7-methoxyquinoxalin-2-yl)-2-fluorophenyl)-N-(5-(1-(trifluoromethyl)cyclopropyl)isoxazol-3-yl)acetamide] |
| < 10 nM | < 10 nM | COc1cc2nc(-c3ccc(CC(=O)Nc4cc(C5(C(F)(F)F)CC5)on4)c(F)c3)cnc2cc1OCCN(C)C(C)=O [Example 176, 2-[4-[6-[2-[acetyl(methyl)amino]ethoxy]-7-methoxy-quinoxalin-2-yl]-2-fluoro-phenyl]-N-[5-[1-(trifluoromethyl)cyclo-propyl]isoxazol-3-yl]acetamide] |
| < 10 nM | < 10 nM | COc1cc2nc(-c3ccc(CC(=O)Nc4cc(C(C)(C)C(F)(F)F)on4)c(F)c3)cnc2cc1OCCn1cnnc1 [Example 211, 2-[2-fluoro-4-[7-methoxy-6-[2-(1,2,4-triazol-4-yl)ethoxy]quinoxalin-2-yl]phenyl]-N-[5-(2,2,2-trifluoro-1,1-dimethyl-ethyl)isoxazol-3-yl]acetamide] |
| < 10 nM | < 10 nM | COc1cc2nc(-c3ccc(CC(=O)Nc4cc(C5(C(F)(F)F)CC5)on4)c(F)c3)cnc2cc1OCCN1CCO[C@H](C)C1 [Example 242, 2-[2-fluoro-4-[7-methoxy-6-[2-[(2R)-2-methylmorpholin-4-yl]ethoxy]quinoxalin-2-yl]phenyl]-N-[5-[1-(trifluoromethyl)cyclo-propyl]isoxazol-3-yl]acetamide] |
| < 10 nM | < 10 nM | CC(=O)NCCOc1cc2ncc(-c3ccc(CC(=O)Nc4cc(C(C)(C)C(F)(F)F)on4)c(F)c3)nc2cc1OCCNC(C)=O [Example 220, 2-[4-[6,7-bis(2-acetamidoethoxy)quinoxalin-2-yl]-2-fluoro-phenyl]-N-[5-(2,2,2-trifluoro-1,1-dimethyl-ethyl)isoxazol-3-yl]acetamide] |
| < 10 nM | < 10 nM | CNCCOc1cc2ncc(-c3ccc(CC(=O)Nc4cc(C5(C(F)(F)F)CC5)on4)c(F)c3)nc2cc1OC [Example 175, 2-[2-fluoro-4-[7-methoxy-6-[2-(methyl-amino)ethoxy]quinoxalin-2-yl]phenyl]-N-[5-[1-(trifluoro-methyl)cyclo-propyl]isoxazol-3-yl]acetamide] |
| < 10 nM | < 10 nM | COc1cc2ncc(-c3ccc(CC(=O)Nc4cc(C(C)(C)C(F)(F)F)on4)c(F)c3)cc2cc1OCCNC(C)=O [Example 205, 2-[4-[6-(2-acetamidoethoxy)-7-methoxy-3-quinolyl]-2-fluoro-phenyl]-N-[5-(2,2,2-trifluoro-1,1-dimethyl-ethyl)isoxazol-3-yl]acetamide] |

| SMILES | IC50 [1] | IC50 [2] |
| --- | --- | --- |
| COc1cc2nc(-c3ccc(CC(=O)Nc4cc(C5(C(F)(F)F)CC5)on4)c(F)c3)cnc2cc1OCCN1C2CCC1COC2 [Example 245, 2-[2-fluoro-4-[7-methoxy-6-[2-(3-oxa-8-azabicyclo[3.2.1]octan-8-yl)ethoxy]quinoxalin-2-yl]phenyl]-N-[5-[1-(trifluoromethyl)cyclo-propyl]isoxazol-3-yl]acetamide] | < 10 nM | < 10 nM |
| COc1cc2nc(-c3ccc(CC(=O)Nc4cc(C5(C(F)(F)F)CC5)on4)c(F)c3)cnc2cc1OCCN1CC2CC(C1)O2 [Example 223, 2-[2-fluoro-4-[7-methoxy-6-[2-(6-oxa-3-azabicyclo[3.1.1]heptan-3-yl)ethoxy]quinoxalin-2-yl]phenyl]-N-[5-[1-(trifluoromethyl)cyclo-propyl]isoxazol-3-yl]acetamide] | < 10 nM | < 10 nM |

Reference: US9725465B2, “Biaryl acetamide compounds and methods of use thereof” (Ambit Biosciences Corporation, priority 2013, dated 2017)
